{"source": "patent US20260382588A1", "about": "“COMPOUNDS CONTAINING A HYDROXYPHENYL MOIETY AND THEIR USE” (published 2026)", "key": {"U251 cells": {"system": "U251 cells", "assay": "Proteome analysis of treated U251 cells", "method": "Proteomic analyses—Untreated and MKC8866 and compound 33 (Z4)-treated (during 48 hours) parental U251 and RADH87 GB cells as well as DN IRE1 U251 and RADH87 cells were lysed with lysis buffer composed of 20 mM Tris pH 8, 1.5 mM EDTA, 150 mM NaCl, 1% Triton X-100, 0.1% SDS, supplemented with proteases and phosphatases inhibitor cocktails (Roche). Total proteins were precipitated with 80% ice-cold acetone. Washed pellet were then denatured with 8 M urea in Tris-HCl 0.1 mM, reduced with 5 mM TCEP for 30 minutes, and then alkylated with 10 mM iodoacetamide for 30 minutes in the dark. […] Samples were analyzed using an Ultimate 3000 nano-RSLC (Thermo Scientific, San Jose California) coupled in line with a LTQ-Orbitrap ELITE mass spectrometer via a nano-electrospray ionization source (Thermo Scientific, San Jose California). Proteins were identified and quantified by database searching using SequestHT (Thermo Fisher Scientific) with Proteome Discoverer 2.4 software (PD2.4, Thermo Fisher Scientific) against Homo sapiens reviewed SwissProt database. Peptides and proteins were filtered with a false discovery rate (FDR) at 1% and their quantification was based on XIC (Extracted Ion Chromatogram). […]"}, "PERK": {"system": "PERK", "assay": "eIF2α phosphorylation and ATF4 protein expression", "settings": "data not shown", "method": "Western blotting—All IRE1 signaling analyses were carried out as described previously (S. Lhomond et al., Methods Mol. Biol., 2015, 1292, 177-194). Cells grown on 6 well plates were washed with PBS and lysed with RIPA lysis buffer at 4 °C, over 25 minutes to extract protein. IRE1 and phosphorylated IRE1 were stained using anti-IRE1 antibody (Anti-human; rabbit polyclonal; SantaCruz Biotechnologies, H-190) and pS724-IRE1 antibody (Anti-human; rabbit polyclonal; Abcam, ab48187), respectively. The phosphorylated form of eIF2α was stained with anti-phospho-eIF2α (Ser51) Antibody #9721 (CellSignalling®). Actin was used as a loading control (P-Actin (C4): sc-47778; SantaCruz Biotechnologies). […]\nThe effect of compounds 28 (Z4P) and 33 (Z4) on RIDD was then tested by interrogating the levels of the known RIDD target Sparc mRNA (46) in U87 cells upon treatment with the transcriptional blocker actinomycin D and the ER stressor tunicamycin. […] The expression of downstream effectors of PERK and ATF6 was evaluated. […] Consequently, to further document the characteristics of compound 33 (Z4) at the protein level, U251 (commonly available GB cell line) and RADH87 (G. Auf et al., Proc Natl Acad Sci USA, 2010, 107, 15553-15558) (human tumor-derived primary GB cell line) cells were treated and their proteome were evaluated. […]"}}}
{"smiles": "Cc1ccc(C(N)=O)cc1NC(=O)NC(C)CCc1ccc(O)cc1", "note": "(racemic)", "values": [{"measurement": "pathways impacted in proteome", "setting": "U251 cells; 48 hours", "result": "impacted on particular pathways such as cell adhesion, circulatory system development, cell locomotion and cell migration"}, {"measurement": "proteome alterations versus cells with genetically blunted IRE1 activity", "setting": "U251 cells; comparison with DN and Q780stop", "result": "phenocopied those observed in cells in which IRE1 activity was genetically blunted"}, {"measurement": "ATF4 protein expression", "setting": "PERK", "result": "not altered"}, {"measurement": "eIF2α phosphorylation", "setting": "PERK", "result": "not altered"}]}
